Data reported in publication PMC5332414, “Mycobacterium abscessus subsp. abscessus Is Capable of Degrading Pseudomonas aeruginosa Quinolone Signals” (Frontiers in Microbiology, 2017).

System: CCCCCCCc1[nH]c2ccccc2c(=O)c1O
Test: purified protein
Conditions: apparent, co-substrate O2, 50 mM Tris, 2 mM EDTA, 10% PEG 1500, 4% (v/v) DMSO, pH 8.0, 30°C, natural variant AqdC^II of clinical isolates (strain P13 group)

Substance: AqdC (AqdC^I) (Mycobacteroides abscessus ATCC 19977; A133T/R129P)
- Km: 13.6 ± 1.6 µM
- kcat: 61.0 ± 4.3 s⁻¹
